Read-outs that look alike come from different tables or passages of the source.
Experiments:
[1] = for emission yield (Φ): 37° C.
[2] = Emission lifetime measurement; format: physicochemical; conditions: 37° C.
Source text: 1969, 31, 1-13], as a standard.

seminaphthorhodaflor-1-carboxylate dextran conjugate [SNARF-1C-Dex]
emission yield (Φ) ([1]; acid form): .024
emission yield (Φ) ([1]; base form): .022
isosbestic point ([1]; emission spectra as a function of pH): 620 nm
lifetime (τ) ([2]; acid form): 0.91 ns
lifetime (τ) ([2]; base form): 1.39 ns
